Active and inactive are the calls of the source.
Experiments:
Format in all cases: functional
[1] = target: Mu-type opioid receptor (Homo sapiens) (UniProt P35372); assay: Agonist activity at cloned human mu opioid receptor at 10 uM by [35S]GTPgammaS binding assay
[2] = target: Kappa-type opioid receptor (Homo sapiens) (UniProt P41145); assay: Agonist activity at cloned human kappa opioid receptor at 10 uM by [35S]GTPgammaS binding assay
[3] = target: Delta-type opioid receptor (Homo sapiens) (UniProt P41143); assay: Agonist activity at cloned human delta opioid receptor at 10 uM by [35S]GTPgammaS binding assay

Amino acid sequences for entries named in this document (tags omitted). A change or cut given only in a name is not applied to a line headed by its entry.
UniProt P35372, whole entry: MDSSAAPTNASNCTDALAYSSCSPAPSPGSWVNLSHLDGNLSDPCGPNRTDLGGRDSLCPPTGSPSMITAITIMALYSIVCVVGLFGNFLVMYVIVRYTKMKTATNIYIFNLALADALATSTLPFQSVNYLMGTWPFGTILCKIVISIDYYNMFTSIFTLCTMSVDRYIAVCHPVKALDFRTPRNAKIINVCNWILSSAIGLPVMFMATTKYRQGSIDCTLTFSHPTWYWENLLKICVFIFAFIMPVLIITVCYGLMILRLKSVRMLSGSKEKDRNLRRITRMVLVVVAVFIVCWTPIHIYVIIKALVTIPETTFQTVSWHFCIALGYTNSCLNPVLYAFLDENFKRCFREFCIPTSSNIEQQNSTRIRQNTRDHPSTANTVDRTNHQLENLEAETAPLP
UniProt P41145: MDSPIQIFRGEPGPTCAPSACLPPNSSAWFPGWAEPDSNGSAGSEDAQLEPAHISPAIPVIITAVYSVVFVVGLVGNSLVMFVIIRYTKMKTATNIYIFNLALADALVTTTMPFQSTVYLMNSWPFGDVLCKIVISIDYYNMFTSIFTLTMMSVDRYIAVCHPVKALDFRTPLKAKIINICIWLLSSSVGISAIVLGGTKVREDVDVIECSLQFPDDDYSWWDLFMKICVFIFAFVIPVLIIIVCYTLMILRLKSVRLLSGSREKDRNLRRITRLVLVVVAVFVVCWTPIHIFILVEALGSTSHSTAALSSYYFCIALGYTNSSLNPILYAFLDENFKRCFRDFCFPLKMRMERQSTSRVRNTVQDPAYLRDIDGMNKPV
UniProt P41143, whole entry: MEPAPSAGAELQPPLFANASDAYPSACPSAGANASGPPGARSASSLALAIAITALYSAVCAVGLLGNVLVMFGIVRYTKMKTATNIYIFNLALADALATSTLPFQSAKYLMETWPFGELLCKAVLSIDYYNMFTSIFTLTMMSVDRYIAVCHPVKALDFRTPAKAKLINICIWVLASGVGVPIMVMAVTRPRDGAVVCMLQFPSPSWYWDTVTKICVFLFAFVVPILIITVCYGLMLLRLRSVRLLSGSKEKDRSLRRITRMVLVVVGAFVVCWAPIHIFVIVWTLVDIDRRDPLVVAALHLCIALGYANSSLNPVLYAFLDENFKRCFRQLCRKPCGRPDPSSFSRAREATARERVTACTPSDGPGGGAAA

Measured: Activity

CC(C)[C@@H](CN1CCC(C)(c2cccc(O)c2)CC1)NC(=O)[C@H]1Cc2ccc(O)cc2CN1
inactive: all assays above

Source: ChEMBL document CHEMBL3612054 (Bioorg Med Chem, 2015)
